The source of these data is PMC9214538, “The M1 muscarinic receptor is present in situ as a ligand-regulated mixture of monomers and oligomeric complexes” (Proceedings of the National Academy of Sciences of the …, 2022).

Sequences of proteins named here, by UniProt entry; tags and fusion partners are left off. A change or cut given only in a name is not applied to a line headed by its entry.
UniProt P12657: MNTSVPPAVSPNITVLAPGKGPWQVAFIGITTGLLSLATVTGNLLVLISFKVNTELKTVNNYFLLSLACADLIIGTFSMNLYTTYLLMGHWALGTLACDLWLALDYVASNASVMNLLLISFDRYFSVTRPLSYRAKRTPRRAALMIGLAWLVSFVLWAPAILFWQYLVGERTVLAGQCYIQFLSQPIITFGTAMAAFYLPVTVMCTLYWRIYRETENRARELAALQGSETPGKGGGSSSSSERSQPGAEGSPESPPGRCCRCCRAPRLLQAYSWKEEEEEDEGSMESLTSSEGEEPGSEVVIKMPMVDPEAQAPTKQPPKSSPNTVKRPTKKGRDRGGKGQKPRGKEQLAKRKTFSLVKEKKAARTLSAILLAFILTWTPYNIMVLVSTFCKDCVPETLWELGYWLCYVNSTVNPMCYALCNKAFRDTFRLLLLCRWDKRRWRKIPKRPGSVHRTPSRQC

The EC50 is the concentration at which the effect is half-maximal. A low value points to higher potency in that assay.

In assay [1] the target is M1 receptor and/or M1-mEGFP (Mus musculus, UniProt P12657). The note with it: 1 mM carbachol, membranes from WT mice, Gαq/Gα11 immunoprecipitated.
Assay [2] concerns M1 receptor and/or M1-mEGFP. Particulars: 1 mM carbachol, membranes from M1-KO mice.
The target of the next assay is M1-mEGFP receptor (Mus musculus, UniProt P12657). Particulars: carbachol 1 × 10^−3 M, 30 min.
The next assay has as its target M1 receptor / M1-mEGFP (Mus musculus, UniProt P12657). The assay is described as follows: cell-based. The note with it: pEC50, production of inositol phosphates.

As to `C[N+](C)(C)CCOC(N)=O` [carbachol], in assay [1], the “increase in bound [^35S]GTPγS” value was “approximately threefold”. Further, the “promotion of [^35S]GTPγS binding” value in assay [2] is “unable to promote binding of [^35S]GTPγS”. Also, the “distribution of the receptor” value at M1-mEGFP receptor was “increased the apparent punctate distribution of the receptor”. For the same molecule, the “proportion of monomeric species” value at M1-mEGFP receptor (P < 0.0001 vs no ligand) was “markedly increased”. Also, on M1-mEGFP receptor (P < 0.001), the dimer fraction result is reported as “associated reduction” and the oligomer fraction entry is recorded as “associated reduction”. The molecule also gave an EC50 on M1 receptor / M1-mEGFP (neuronal cultures from WT mice) of 24 µM. This molecule also gave an EC50 at M1 receptor / M1-mEGFP (neuronal cultures from homozygous M1-mEGFP mice) of 25.7 µM.
